Measured values from ChEMBL document CHEMBL1138948, “Design, synthesis, and evaluation of proline and pyrrolidine based melanocortin receptor agonists. A conformationally restricted dipeptide mimic approach” (J Med Chem, 2006).

Amino acid sequences for entries named in this document (tags omitted).
UniProt P32245, whole entry: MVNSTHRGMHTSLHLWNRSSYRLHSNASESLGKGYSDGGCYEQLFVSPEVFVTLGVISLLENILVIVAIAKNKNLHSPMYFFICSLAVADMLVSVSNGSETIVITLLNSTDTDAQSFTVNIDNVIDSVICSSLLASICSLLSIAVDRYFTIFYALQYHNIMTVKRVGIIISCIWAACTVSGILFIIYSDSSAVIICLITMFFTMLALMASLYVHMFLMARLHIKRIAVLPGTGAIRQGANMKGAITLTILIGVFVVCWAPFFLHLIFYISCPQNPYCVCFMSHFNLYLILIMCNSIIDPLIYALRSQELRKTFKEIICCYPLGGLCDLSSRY

Biological target: Melanocortin receptor 4 (Homo sapiens, UniProt P32245)
Assay: Displacement of europium labeled NDP-alpha-MSH from human MC4R expressed in HEK293 cells
Assay type: cell-based

`CC(=O)N[C@@H](Cc1c[nH]cn1)C(=O)N[C@@H](Cc1ccccc1)C(=O)N[C@@H](CCCN=C(N)N)C(=O)N[C@@H](Cc1c[nH]c2ccccc12)C(N)=O` gave a Ki of 0.246 µM.
